{"source": "patent US6743609B1", "about": "“Linoleate isomerase” (Arkion Life Sciences LLC, priority 1997, dated 2004)", "system": "P. acnes ATCC 6919 linoleate isomerase", "assay": "Effect of cofactors, metals, chelators and sulfhydryl reagents on isomerase activity of crude soluble enzyme preparation", "type": "biochemical, Propionibacterium acnes", "settings": "60 minute assays", "experimental": "A number of possible cofactors were tested for their effect on isomerase activity, including NAD, NADH, NADP, NADPH, FAD, FMN, ADP, ATP and glutathione.\nGenerally, the isomerase was assayed using an endpoint assay after 30 to 60 minutes incubation at room temperature. FIG. 18 (time course assay at different linoleic acid levels) and FIG. 19 (end point assay at different linoleic acid levels) show the effect of increasing substrate concentration on formation of […]."}
{"smiles": "Nc1ncnc2c1ncn2[C@@H]1O[C@H](COP(=O)(O)OP(=O)(O)OP(=O)(O)O)[C@@H](O)[C@H]1O", "note": "[ATP]", "values": [{"measurement": "effect of possible cofactor on isomerase activity", "result": "No significant effect"}]}
